According to PubChem BioAssay AID651658 (Broad Institute, 2012):
The list shows a part of the results, in another mix than the full data. Active and inactive are the calls of the source.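 Rule for the calls: active = mean Tm shift, scaled 0 neutral to 100 positive control, at about 1.3% or above, every replicate too (limit read from the data); inconclusive = no clear call, values can overlap the other calls; inactive = the rest.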

Chains of the proteins cited; added tags and fusions are not shown.
UniProt Q9HCT0, whole entry: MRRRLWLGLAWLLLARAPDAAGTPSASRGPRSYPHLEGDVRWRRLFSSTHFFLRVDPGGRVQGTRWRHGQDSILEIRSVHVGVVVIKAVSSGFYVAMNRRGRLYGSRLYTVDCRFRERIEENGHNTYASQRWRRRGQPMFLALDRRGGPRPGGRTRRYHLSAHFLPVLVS

molecular target: Fibroblast growth factor 22 (Homo sapiens) (UniProt Q9HCT0); assay: FGF22 ligand-induced thermal stabilization – biophysical, thermal shift, single point, FGF22 synaptogenesis inhibitor project, primary screen (AID 651658); details: recombinant FGF22 thermal shift, SYPRO orange fluorescence; at 9.99 µM; hits give high values; percent of sucrose octasulfate shift, DMSO zero

SMILES	activity (Tm shift, normalised)
COc1ccccc1OP(C)(=O)Nc1ccccc1 (stereo unspecified)	inactive: 0.135%
C[As](=O)(O)c1cccc(C(=O)O)c1	inactive: -0.04%
O=[As](O)(c1ccc(O)cc1)c1ccccc1O	inactive: -0.033%
O=[N+]([O-])c1ccc(-c2cc([N+](=O)[O-])c(O)c([N+](=O)[O-])c2)cc1	inactive: 0.027%
COc1cc(C(=O)NCC2(N3CCOCC3)CCCCC2)ccc1OCC(C)C	inactive: -0.022%
O=[N+]([O-])c1cc([N+](=O)[O-])c(Nc2cccnc2)c([N+](=O)[O-])c1	inactive: -0.167%
O=[N+]([O-])c1ccc2c(c1)C=Nc1ccccc1O2	inactive: 42.8%
Cc1ccc2nc3c(c(C)c2c1)CC(C(Cl)Cl)S3 (stereo unspecified)	inactive: 0.46%
[N-]=[N+]=NC1CCCCC1NC(=O)c1cc([N+](=O)[O-])cc([N+](=O)[O-])c1 (stereo unspecified)	inactive: -0.048%
Cc1ccc(OP(=O)(Nc2ccc([N+](=O)[O-])cn2)Oc2ccc(C)cc2)cc1	inactive: 0.029%
CC(C)(C)c1ccc(OP(C)(=O)Nc2ccc(SC(F)(F)F)cc2)cc1 (stereo unspecified)	inactive: 0.389%
Cc1cccc(C)c1OP(C)(N)=O (stereo unspecified)	inactive: -0.156%
COC(=O)C1(C)COP(=O)(N2CCCCCC2)OC1 (stereo unspecified)	inactive: -0.036%
CC(C)c1ccc(OP(=O)(Nc2ccccn2)Oc2ccccc2F)cc1 (stereo unspecified)	inactive: 0.187%
Cc1cc(C)cc(OP(C)(N)=O)c1 (stereo unspecified)	inactive: -0.041%
COc1ccccc1OP(C)(=O)Nc1cc(Cl)ccc1C (stereo unspecified)	inactive: 0.269%
CC(C)NC(=O)NP(=O)(Oc1ccccc1)Oc1ccccc1	inactive: 0.135%
O=C(OC1CN2CCC1CC2)c1cccc2[nH]cnc12 (stereo unspecified)	inactive: -0.253%
CCN(CC)CCCOC(=O)C(O)(c1ccccc1)c1ccccc1	inactive: -0.015%
Cc1cc(=O)[nH]c(N[N+](=O)[O-])n1	inactive: 0.073%
Cc1c2c(nc3ccccc13)SC(C(Cl)Cl)C2 (stereo unspecified)	inactive: 0.38%
COc1ccc2nc(NP(=O)(c3ccccc3)c3ccccc3)sc2c1	inactive: 0.089%
COc1cc(I)ccc1[As](=O)(O)O	inactive: 0.125%

SMILES	activity (Tm shift, normalised)
COc1ccc(CN2/C(=N\P(=O)(Oc3ccccc3)Oc3ccccc3)Cc3ccccc3C2C2CC2)cc1 (stereo unspecified)	inactive: -0.607%
O=P1(N(CCCl)CCCl)Nc2ccccc2N1	inactive: -0.214%
O=P1(N(CCCl)CCCl)OCCCN1CCCl (stereo unspecified)	inactive: 0.027%
COc1ccc(N/C(=N/P(=O)(N2CCOCC2)N2CCOCC2)N2CCOCC2)cc1	inactive: -0.007%
COc1ccccc1-c1ccccn1.O=[N+]([O-])c1cc([N+](=O)[O-])c(O)c([N+](=O)[O-])c1	inactive: 0.25%
O=[N+]([O-])c1cc(Oc2ccc([N+](=O)[O-])cc2C(F)(F)F)cc([N+](=O)[O-])c1	inactive: 0.016%
NC(=O)c1cc([N+](=O)[O-])cc([N+](=O)[O-])c1N	inactive: 0.568%
CN(C(=O)Cc1ccc(Cl)c(Cl)c1)[C@H]1CCCC[C@H]1N1CCCC1	inactive: -0.068%
COc1ccccc1OP(C)(=O)Nc1ccc(Br)cc1 (stereo unspecified)	inactive: -0.18%
Cc1ccc(N/C(=N/P(=O)(N2CCOCC2)N2CCOCC2)N2CCOCC2)cc1	inactive: 42.4%
COc1ccccc1OP(=O)(Nc1ccc(C)cn1)Oc1ccccc1OC	inactive: 0.343%
Cc1ccc(OP(=O)(Nc2nccs2)Oc2ccc(C)cc2)cc1	inactive: 0.241%
Clc1ccc(Cl)c(NC2=NCC(CBr)S2)c1 (stereo unspecified)	inactive: 0.615%
Nc1cc(N)c2nonc2c1[N+](=O)[O-]	inactive: 0.016%
O=[N+]([O-])c1cc([N+](=O)[O-])c(Nc2ccccn2)c([N+](=O)[O-])c1	inactive: -0.08%
O=C(NC(Sc1ccncn1)C(Cl)(Cl)Cl)c1ccccc1 (stereo unspecified)	inactive: -0.109%
CC(=O)Nc1ccc([As](=O)(O)O)cc1	inactive: -0.022%
O=C(O)c1ccccc1[As](=O)(O)O	inactive: -0.129%
O=P(Nc1nc2ccc(Cl)cc2s1)(c1ccccc1)c1ccccc1	inactive: 0.135%
CN(C)P(=O)(N(C)C)n1c(Nc2ccccc2)nnc1-c1ccccc1	inactive: -0.692%
Cc1ccc(NP(=O)(Oc2ccccc2F)Oc2ccccc2F)nc1	inactive: 0.011%
CN(C(=O)Cc1ccc(Cl)c(Cl)c1)[C@H]1CCCC[C@@H]1N1CCCC1	inactive: -0.01%
CCn1c(=O)n(C2CCN(CC3CCCCCCC3)C[C@H]2CO)c2ccccc21 (stereo partly specified)	inactive: 0.103%
